Test results published in patent publication US20050132430A1, “Igamete recruitment and developmental competence in mammals by inhibiting the de-nova sterol biosynthesis and/or promoting sterol efflux” (priority 2001, published 2005).

What was measured:
[1] = test system: gonadotrophin primed prepubertal mouse ovaries; experiment: Free cholesterol, FF-MAS and progesterone in ovaries of gonadotrophin primed prepubertal mice (HPLC); type: in vivo; settings: ovary, 6 h after hCG
Description: The other half (control mice) were injected a similar volume of PBS. […] Ovaries were isolated pair-wise, weighed, freeze-dried, weighed again and subsequently extracted in 1.0 ml (v/v) 75% n-heptane: 25% isopropanol. The organic extract was re-constituted in mobilphase for HPLC straight-phase (SP) separation (ChromSpherSi, 5 μm, 250×4.6 mm HPLC column, running in (v/v) 99.5% n-heptane (Fischer, Leicestershire, U.K.): 0.5% isopropanol (Baker, NL) at 1.00 ml/min.). Eluted material was detected by ultraviolet light absorption between 200-300 nm. Prior to the HPLC analysis a standard mixture containing cholesterol, FF-MAS and progesterone (P4) was run three times in order to confirm the stability of response factors for standards. Standards for cholesterol (Steraloids […]) and P4 (Sigma P-0130) were obtained commercially whereas the FF-MAS standards used was produced in the laboratory as described before (Baltsen et al., 1999). All standard curves were linear in the range of all sample values.

mouse ovaries = experiment: Incubation in vitro of mouse ovaries with 3H-acetic acid, scintillation of HPLC-separated analytes; type: cell-based
Description: Prepubertal C57 black×DBA 2 F1 female mice (M&B A/S, Ry, Denmark) were stimulated to super-ovulation (day 0) by i.p. injections of 12 IU Menogon® (Ferring, Vanløse, Denmark) in 200 μL H2O as in examples 1-4. Ovaries were isolated 46 hours after as in example 4 and cultured in toto in α-MEM (Gibco BRL, Scotland) in presence of 0.25 mCi ^3H-acetic acid (NEN, U.S.A.). Cultures were added 0 (control) or 5 IU/ml hCG and 0 (control) or 20% FCS in combinations. 2 ovaries were incubated together in 1.0 ml medium. 22 hours after, cultures were stopped, ovaries rinsed and extracted as explained in example 3. The extracted sterols were separated by HPLC Column: ChromSpherSi 250×4.6 mm, 5 μm; mobile phase: 99.65% n-heptane (Fisher, Leicester, U.K.): 0.35% isopropanol (Baker, Deventer, NL) (vol.:vol.)), regeneration; 90% n-heptane: 10% isopropanol. Prior to straight phase sample analysis three consecutive runs of a standard mixture containing squalene, 4,4-dimethylsterols, 7-dehydrocholesterol, desmosterol, cholesterol and P4 were performed in order to tabulate time windows for collection. Window 1 (2′50″-4′00″) containing squalene, window 2 (10′30″-14′00″) containing 4,4-dimethylsterols, window 3 (25′00″-29′00″) containing cholesterol and desmosterol, window 4 (29′30″-33′00″) containing 5,7-enes and window 5 (containing P4) were collected, dried and subjected to reversed phase: LiChrospher RP-8, 5 μm, 250×4.6 mm HPLC column running in (v/v) 92.5% acetonitrile: 7.5% water at 1.00 ml/min, 40° C. Analytes were identified by UV light absorption between 200-300 nm. Squalene (Merck S21362), lanosterol (Sigma L5768), zymosterol (Steraloids C3200), lathosterol (Steraloids C7400), 7-dehydrocholesterol (Steraloids C3000), desmosterol (Steraloids C3150), cholesterol (Steraloids C6760) and P4 (Sigma P-0130) were obtained commercially, whereas FF-MAS and T-MAS standards were produced in the laboratory. All the below ranked analytes eluted as single homogeneous single peaks on the reversed phase separation. Peaks were collected, mixed with 3.0 ml scintillation fluid (Packard, NL) in scintillation vials. Countings were performed in a Beckman LS 1801 liquid scintillation counter. CPM values were corrected for counting efficiency and sample injection: […]

[2] = test system: de novo cholesterol biosynthesis; experiment: Radio-tracing of 3H from acetic acid into free cholesterol in COC cultures; type: cell-based, mouse; settings: pooled COC cultures
Description: DPM on the ordinate axis indicate the radioactivity measured by the scintillation detector after correction for counting efficiency and purification efficiencyby the HPLC method. N denotes the total number of COCs extracted for cholesterol isolation by HPLC.
Prepubertal C57 black×DBA 2 F1 female mice (M&B A/S, Ry, Denmark) were stimulated to super-ovulation (11 a.m. at day 0) by i.p. injections of 12 IU Menogon® (Ferring, Denmark) in 200 μL H2O as in examples 1 and 2. Oocytes from preovulatory follicles were retrieved from the ovaries 46 hours after by puncturing the pre-ovulatory follicles of the ovaries with 0.20 mm needles when ovaries were immersed in a culture medium (α-MEM 22571-020, Gibco BRL, Scotland) supplemented with 4 mM hypoxanthine (see below). […] The statin Compactin (Sigma, Sigma-Aldrich, Denmark,) was added in 50 mM in DMSO (final concentration of DMSO in cultures were 1% v/v in all set-ups including controls) and recombinant human follicular stimulating hormone (Gonal-F, Serono, DK) was added to a final concentration of 7.5 IU/L. After 22 hours of culture oocytes were scored for the presence of germinal vesicles (GV), germinal vesicle breakdown (GVB) and presence of polar bodies (PB). […]

[3] = test system: mouse cumulus enclosed oocytes (CEO); experiment: IVF fertilisation of cumulus enclosed oocytes after IVM with a statin; type: cell-based; settings: vs control oocytes
Description: Mouse oocytes were isolated and cultured according to descriptions in example 3 but for a single deviation in that the IVM culture medium was further supplemented with 1 mg/mL Fetuin (Sigma F-3385, Sigma, U.S.A.). The CEOs were divided into three groups and cultured in dishes containing medium added either 1% (v/v) ethanol (control), recombinant human follicular stimulating hormone (Gonal-F, Serono, DK) at a concentration of 7.5 IU/L together with 1% (v/v) ethanol (FSH), or 10 μM Compactin (Mevinolin M2147, Sigma-Aldrich, Denmark) with 1% (v/v) ethanol (Mevinolin). The ethanol was necessary in order to dissolve Mevinolin in the medium. […] The resulting pool of motile sperm was counted in a counting chamber and 50000 motile sperm cells was added each oocyte culture. […] These oocytes were left for another 48 hours and subsequently counted according to the maturational status of the oocyte or the progression of the fertilised zygote, i.e. GV-oocytes, GVBD-oocytes, PB-oocytes, PB^2-oocytes (oocytes with a visible second polar body), 2-cells, 3-4-cells, 4+ cells (zygotes with more than 4 blastomeres) and degenerated cells (usually granulated or cells with extensive plasma-membrane ondulation).

| Substance | FF-MAS [1] [B μg/g wet w.] | P4 (progesterone) [1] [A μg/g wet w.] | Control/hCG scintillation ratio, 5,7-ene (mouse ovaries; 5 IU/ml hCG, 22 hours) [%] | Control/hCG scintillation ratio, Cholesterol (mouse ovaries; 5 IU/ml hCG, 22 hours) [%] | Control/hCG scintillation ratio, Desmosterol (mouse ovaries; 5 IU/ml hCG, 22 hours) [%] | Control/hCG scintillation ratio, FF-MAS (mouse ovaries; 5 IU/ml hCG, 22 hours) [%] | Control/hCG scintillation ratio, Lanosterol (mouse ovaries; 5 IU/ml hCG, 22 hours) [%] | Control/hCG scintillation ratio, Progesterone (mouse ovaries; 5 IU/ml hCG, 22 hours) [%] | Control/hCG scintillation ratio, Squalene (mouse ovaries; 5 IU/ml hCG, 22 hours) [%] | Control/hCG scintillation ratio, T-MAS (mouse ovaries; 5 IU/ml hCG, 22 hours) [%] | de novo biosynthesis of cholesterol in mouse ovaries (mouse ovaries; following hCG treatment) | inhibition of cholesterol de novo biosynthesis (3H from acetic acid in free cholesterol) [2] | cumulus expansion after the IVM culture period [3] |
| --- | --- | --- | --- | --- | --- | --- | --- | --- | --- | --- | --- | --- | --- |
| hCG: human chorion gonadotrophin (Ferring), ovulatory trigger | 3.0 ± 0.5 | 13.0 ± 0.5 | 35 ± 4 | 226 ± 39 | 58 ± 7 | 72 ± 16 | 22 ± 7 | 13 ± 5 | 80 ± 9 | 43 ± 50 | decreases | – | – |
| FSH: recombinant human follicular stimulating hormone (Gonal-F, Serono) | – | – | – | – | – | – | – | – | – | – | – | less effective | intermediate |
